This is an account of results in patent publication US20100222309A1, “SKIN PROPERTY-IMPROVING THERAPEUTIC AGENT COMPRISING A MORPHINAN DERIVATIVE OR ANY OF ITS PHARMACOLOGICALLY PERMISSIBLE ACID ADDITION SALTS AS AN ACTIVE INGREDIENT” (TORAY INDUSTRIES, INC., priority 2007, published 2010).

The test system of the assay is itch patients treated with hemodialysis. Nature of the assay: Oral administration of compound 1 soft capsules to itch patients treated with hemodialysis; skin properties and itching observed. The note with it: two capsules (5.0 μg) oral, after start of administration.

For `CN(C(=O)/C=C/c1ccoc1)[C@@H]1CC[C@@]2(O)[C@H]3Cc4ccc(O)c5c4[C@@]2(CCN3CC2CC2)[C@H]1O5.Cl` [compound 1], the “skin property (smoothness)” value (patient one) was “became smoother on the skin in general (especially legs), to have beautiful skin”. In addition, the “skin property (dryness of face, complexion)” value (patient two) was “became less dry on the face and gained good complexion”.
